Experimental findings from ChEMBL document CHEMBL4152383 (J Med Chem, 2018) are described below.

This test in a line: Selectivity index, ratio of IC50 for human His-thioredoxin-tagged HDAC8 to IC50 for Schistosoma mansoni His-tagged HDAC8.

Regarding `O=C(NO)c1cn(-c2cc(Cl)ccc2Oc2ccc(F)cc2)nn1`, the Ratio IC50 was found to be 4.
